{"source": "patent US9518008B2", "about": "“(1S,2S,3S,4R)-3-[(1S)-1-acetylamino-2-ethyl-butyl]-4-uanidino-2-hydroxyl-cyclopentyl-1-carboxylic acid hydrates pharmaceutical uses thereof” (Institute of Pharmacology and Toxicology Academy of …, priority 2007, dated 2016)", "origin": "cited, not measured here", "key": {"cells": {"test_system": "cells", "settings": "cited from earlier work"}, "[1]": {"settings": "rats; cited from earlier work"}, "[2]": {"settings": "mice; cited from earlier work"}}, "note": "Where two headings read alike, the source gives them in different places.", "data": [{"smiles": "CCC(CC)[C@H](NC(C)=O)[C@H]1[C@H](O)[C@@H](C(=O)O)C[C@H]1NC(=N)N", "note": "[Anhydrous, (1S,2S,3S,4R)-3-[(1S)-1-acetylamino-2-ethyl-butyl]-4-guanidino-2-hydroxy-cyclopentyl-1-carboxylic acid]", "values": [{"measurement": "dose non-toxic to cells", "setting": "cells", "result": "≤ 328", "unit": "µg/mL"}, {"measurement": "dose without acute toxic reaction", "setting": "[1]", "result": "up to 3000 mg/kg/day"}, {"measurement": "dose without acute toxic reaction", "setting": "[2]", "result": "up to 3000 mg/kg/day"}]}]}
